Data from patent US20240225983A1, “COMPOSITIONS AND METHODS FOR PREVENTING OR REDUCING AUTOXIDATION OF FRAGRANCE AND FOOD OILS” (Firmenich SA, priority 2021, published 2024).

Assay: Solubility / appearance in undiluted fragrance oil
Type: physicochemical
Settings: 180 μL (2% v/v) in 9 mL model fragrance oil, vortexed ~1 min
Method: Treatment of Undiluted Fragrance Oil: In 15 ml vials, to separate aliquots of the mixed model fragrance oil (9 mL each aliquot) was added 180 μL (2% v/v) of each SOP, and the samples were vigorously vortexed for ˜1 min, to obtain a homogenous, clear solution (the AKG-NMDEA was an exception in that it was hazy). The resulted samples were then allowed to stand on the laboratory benchtop under ambient light and temperature. POV measurements were taken as a function of time after the addition; the headspace within the vial was refreshed with the ambient atmosphere with each opening of the vial.

Structure (SMILES): CN(CCO)CCO.CN(CCO)CCO.O=C(O)CCC(=O)C(=O)O [AKG-NMDEA, AKG di[N-methyldiethanolammonium] salt]
- appearance of solution in undiluted fragrance oil: hazy
